System: huPPARα
Assay: Cotransfection assay in CV-1 cells, huPPARα
Details: GAL4 chimeric system, relative to PPARα agonist reference molecule

| Structure (SMILES) | huPPARα CTF Efficacy |
| --- | --- |
| Cc1oc(-c2ccccc2)nc1CCOc1ccc(CC(C)(Oc2ccccc2)C(=O)O)cc1 (racemic) [Example 1, rac-3-{4-[2-(2-Phenyl-5-methyl-oxazol-4-yl)-ethoxy]-phenyl}-2-methyl-2-phenoxy-propionic acid] | 70% |
| Cc1oc(-c2cccs2)nc1CCOc1ccc(CC(C)(Oc2ccccc2)C(=O)O)cc1 (racemic) [Example 4, rac-2-Methyl-3-{4-[2-(5-methyl-2-thiophen-2-yl-oxazol-4-yl)-ethoxy]-phenyl}-2-phenoxypropionic acid] | 80% |
| Cc1oc(-c2ccccc2)nc1CCOc1ccc(C[C@@](C)(Oc2ccccc2)C(=O)O)cc1 [Example 2, (R)-3-{4-[2-(2-Phenyl-5-methyl-oxazol-4-yl)-ethoxy]-phenyl}-2-methyl-2-phenoxy-propionic acid] | 59% |
| Cc1oc(-c2ccccc2)nc1CCOc1ccc(C[C@](C)(Oc2ccccc2)C(=O)O)cc1 [Example 3, (S)-3-{4-[2-(2-Phenyl-5-methyl-oxazol-4-yl)-ethoxy]-phenyl}-2-methyl-2-phenoxy-propionic acid] | 70% |
| Cc1oc(-c2cccs2)nc1CCOc1ccc(C[C@@](C)(Oc2ccccc2)C(=O)O)cc1 [Example 5, (R)-2-Methyl-3-{4-[2-(5-methyl-2-thiophen-2-yl-oxazol-4-yl)-ethoxy]-phenyl}-2-phenoxypropionic acid] | 65% |
| Cc1oc(-c2cccs2)nc1CCOc1ccc(C[C@](C)(Oc2ccccc2)C(=O)O)cc1 [Example 6, (S)-2-Methyl-3-{4-[2-(5-methyl-2-thiophen-2-yl-oxazol-4-yl)-ethoxy]-phenyl}-2-phenoxypropionic acid] | 72% |
| Cc1oc(C2CCCCC2)nc1CCOc1ccc(CC(C)(Oc2ccccc2)C(=O)O)cc1 (stereo not shown) [Example 7, 2-Methyl-3-(4-{2-[5-methyl-2-cyclohexyl-oxazol-4-yl]-ethoxy}-phenyl)-2-phenoxypropionic acid] | 82% |

Source: patent publication US7345070B2, “Peroxisome proliferator activated receptor agonists” (Eli Lilly and Company, priority 2000, dated 2008)
